Compound activity deposited in PubChem BioAssay by Broad Institute.
Compounds with a hit are over-represented: about 1.3% of the library has one in this group of screens.
UUG fidelity: modulators of yeast start codon fidelity, primary screen, whole organism, S. cerevisiae, single point, plate reader. S. cerevisiae UUG-firefly luciferase reporter, luminescence/redox ratio. activity score, % at 18.7 µM. 350,000 tested, 0.13% active;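 active = replicate mean at a twofold rise or more, about +100% in these data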;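 also: firefly luciferase made from a UUG start codon reports start codon fidelity; reporter light over untreated wells divided by growth signal over untreated wells; some hits fall short of that in this replicate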
F508del corr: CFTR F508del correction in bronchial cells; CFBE cells, YFP halide quenching; stimulated with forskolin plus potentiator P3; % fluorescence drop versus neutral controls; activity (quench increase), % at 7.58 µM; actives 0.36% (n = 350,000); AID 720511;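 active means mean added fluorescence quench of at least 8% versus neutral control, with both replicates also reaching 8%; inconclusive means only one of the mean or replicate conditions met; inactive means mean below 8% and not both replicates reaching 8%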;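 further: cells transiently co-express mutant CFTR-F508del with the halide-sensitive YFP; corrector assay measuring rescue of mutant channel to the surface after 24 h compound exposure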
miR122 inh: miR-122 inhibition in Huh7 cells; AID 602342; actives 0.3% (n = 340,000); activation (reporter increase), % at 12.5 µM; Huh7 miR-122 Renilla luciferase sensor, 48 h; neutral wells = 0, positive control = 100;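 active means mean replicate activation score at least 90 and every replicate individually at or above 90; inconclusive means only one of the two criteria met; inactive means neither criterion met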;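 further: higher luciferase means less miR-122 activity so hits act as miR-122 inhibitors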
LGR2 antag: blocks bursicon-induced cAMP signaling via Drosophila LGR2; HEK293 LGR2, CRE-luciferase, bursicon-stimulated, 4 h; inhibition, % at 9.99 µM; actives 0.35% (n = 380,000); AID 720647;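 active means drop in luminescence signal, shown as inhibition above about 50% in the replicate tests, limit read from the data, passing the limit was not always enough; inconclusive means probably only some replicates passing the limit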;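 further: agonist challenge used bursicon conditioned medium at about half maximal strength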
PglD inh: inhibitors of Campylobacter jejuni PglD acetyltransferase. purified PglD enzyme, DTNB colorimetric CoA detection. inhibition, % at 12.5 µM. actives 0.098% (n = 360,000). AID 602405; in the data active means inhibition above about 16%, passing the limit was not always enough; inconclusive means no clear call, values can overlap the other calls
EWS-Fli inh: EWS/Fli transcriptional activity inhibition | A673 NR0B1-luciferase reporter, viability-normalised | inhibition, % at 12.6 µM | actives 0.67% (n = 350,000) | AID 651661;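 active means mean inhibition of at least 50% after viability correction, with every replicate also passing that limit; inconclusive means mean reaches 50% but only one of two replicates passes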;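 further: firefly luciferase signal divided by Alamar Blue viability fluorescence both relative to DMSO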
* marks the source's active call; other numbers are inactive results; ? = inconclusive; / = not tested or not shown; [ ] = remark or other dose.

entry | compound | UUG fidelity | F508del corr | miR122 inh
1 | C[C@@H]1CN([C@H](C)CO)S(=O)(=O)c2ccc(/C=C/c3ccccc3)cc2O[C@H]1CN(C)C(=O)NC1CCCCC1 | / | 9.6* | -16[16.7 µM]
2 | C/C=C/c1ccc2c(c1)O[C@@H](CN(C)C(=O)Nc1cccc(F)c1)[C@H](C)CN([C@H](C)CO)S2(=O)=O | / | 8.5* | 19[16.7 µM]
3 | C[C@H]1CN([C@@H](C)CO)S(=O)(=O)c2ccc(/C=C/c3ccccc3)cc2O[C@H]1CN(C)Cc1ccccc1 | / | 8.0* | -9[16.7 µM]
4 | COc1ccc(-n2c(=O)c3ccccc3c3ccccc3c2=O)cc1 | -4 | / | -10
5 | O=C(C[C@H]1C[C@H]2c3cc(NC(=O)C4CCC4)ccc3O[C@H]2[C@@H](CO)O1)NCc1ccc2c(c1)OCO2 | -18 | -1 | 3[16.7 µM]
6 | Nc1nc(Nc2ccccc2)nc2ccccc12 | -37 | / | -2
7 | CCOc1ccc(Nc2nc(N)c3ccccc3n2)cc1 | -82 | -1 | /
8 | Cc1ccc(Nc2nc(N)c3ccccc3n2)cc1Cl | -62 | -6 | /

entry | LGR2 antag | PglD inh | EWS-Fli inh
1 | 37 | 0 | 4
2 | -2 | 1 | -2
3 | / | -1 | 13
4 | -9 | 6 | /
5 | -7 | 1 | -5
6 | / | 0 | /
7 | 96* | 0 | 69*
8 | 72* | 1 | 24

New compounds follow.
entry | compound | UUG fidelity | F508del corr | miR122 inh
9 | CN(C)c1ccc(Nc2nc(N)c3ccccc3n2)cc1 | -80 | 0 | /
10 | COc1cc2nc(Nc3ccc(C)c(Cl)c3)nc(N)c2cc1OC | -19 | 5 | /
11 | O=C(O)CCCn1c(=S)[nH]c2c(sc3ccc([N+](=O)[O-])cc32)c1=O | / | -1 | -7
12 | CN(C(=O)c1ccc(NC(=O)Cc2cccc(NC(=O)C3CCN(C(=O)C4CCCC4)CC3)c2)cc1)C1CCCC1 | 2 | -1 | 0
13 | COc1ccc2c(c1OC)OCC2C (configuration not stated) | -7 | 8.1* | -8
14 | O=C(Nc1ccc2ccccc2c1)c1ccccc1F | -17 | -3 | 2
15 | O=C(Nc1ccc(F)cc1)c1ccccc1F | / | -1 | 1
16 | CN(CC1CCCO1)S(=O)(=O)c1ccc(C(=O)Nc2nnc(-c3ccccc3)o2)cc1 (configuration not stated) | -21 | 8.2* | 11

entry | LGR2 antag | PglD inh | EWS-Fli inh
9 | 89* | 1 | 77*
10 | 31 | 5 | 49
11 | -6 | / | -8
12 | / | -3 | 4
13 | -9 | 3 | -1
14 | 52* | 5 | 21
15 | -26 | / | -65
16 | -5 | 4 | 38

(cont.)
entry | compound | UUG fidelity | F508del corr | miR122 inh
17 | Cc1cc(C)c(C)c(S(=O)(=O)Nc2ccc3cn[nH]c3c2)c1C | -12 | -2 | 157*
18 | C[C@H](CO)N1C[C@H](C)[C@H](CN(C)CC2CC2)Oc2ccc(NC(=O)CCCN(C)C)cc2C1=O | -17 | -2 | -7[16.7 µM]
19 | CN1CCC(=O)N(CCOc2ccccc2)CC1 | 0 | 1 | 4
20 | Cn1nnnc1Sc1ncnc2scc(-c3cc4ccccc4o3)c12 | -21 | -6 | -4
21 | Cn1nnnc1Sc1ncnc2scc(-c3ccc(C#N)cc3)c12 | -15 | -7 | -8
22 | Cn1nnnc1Sc1ncnc2scc(-c3cccc(F)c3)c12 | -13 | -11 | 2
23 | Cn1nnnc1Sc1ncnc2scc(-c3ccc(-c4ccccc4)cc3)c12 | -20 | -6 | 22
24 | Cn1nnnc1Sc1ncnc2scc(-c3ccsc3)c12 | -11 | -7 | /

entry | LGR2 antag | PglD inh | EWS-Fli inh
17 | 21 | -4 | -30
18 | -12 | -4 | 0
19 | -12 | -2 | -16
20 | 106* | -2 | 12
21 | 88* | -1 | 21
22 | 83* | 5 | 29
23 | 10 | 4 | -5
24 | 74* | 3 | 22

Remaining list, next part:
entry | compound | UUG fidelity | F508del corr | miR122 inh
25 | O=C(O)c1nn(-c2ccccc2)c(-c2ccccc2)c1C(=O)c1ccccc1 | -11 | / | -7
26 | Cc1c(OC(C)C(=O)NCC2CCC(C(=O)O)CC2)ccc2c(-c3ccccc3)cc(=O)oc12 (configuration not stated) | -8 | -5 | -1
27 | COc1ccccc1-c1ccc2n(c1=O)C[C@H]1[C@H](CO)[C@@H](C(=O)N3CCCCC3)[C@@H]2N1CC1CC1 | / | -2 | -1[16.7 µM]
28 | C[C@@H]1CN([C@@H](C)CO)C(=O)c2cc(C#Cc3cccnc3)cnc2O[C@@H]1CN(C)Cc1cccnc1 | -1 | 2 | -8[16.7 µM]
29 | C[C@@H]1CN([C@@H](C)CO)C(=O)c2cc(NC(=O)Nc3ccc4c(c3)OCO4)ccc2O[C@@H](C)CCCCO[C@H]1CN(C)CC1CCCCC1 | 5 | 2 | -10[16.7 µM]
30 | Cn1nnnc1Sc1ncnc2scc(-c3ccccc3C(F)(F)F)c12 | -16 | -11 | 7
31 | Cn1nnnc1Sc1ncnc2scc(-c3cccc(C(F)(F)F)c3)c12 | -11 | -9 | -10
32 | Cn1nnnc1Sc1ncnc2scc(-c3ccc(C(F)(F)F)cc3)c12 | -18 | -3 | 2

entry | LGR2 antag | PglD inh | EWS-Fli inh
25 | 16 | 0 | /
26 | -4 | 1 | 3
27 | -10 | -3 | -3
28 | 0 | -1 | -9
29 | 21 | 3 | 7
30 | ? | 5 | 5
31 | 88* | 5 | 12
32 | 93* | -1 | 35

Some of these compounds in order of the LGR2 antag value, rising.
# | molecule | LGR2 antag
27 | COc1ccccc1-c1ccc2n(c1=O)C[C@H]1[C@H](CO)[C@@H](C(=O)N3CCCCC3)[C@@H]2N1CC1CC1 | -10
26 | Cc1c(OC(C)C(=O)NCC2CCC(C(=O)O)CC2)ccc2c(-c3ccccc3)cc(=O)oc12 (configuration not stated) | -4
25 | O=C(O)c1nn(-c2ccccc2)c(-c2ccccc2)c1C(=O)c1ccccc1 | 16
9 | CN(C)c1ccc(Nc2nc(N)c3ccccc3n2)cc1 | 89*

Later entries:
entry | compound | UUG fidelity | F508del corr | miR122 inh
33 | C[C@@H]1CN([C@@H](C)CO)S(=O)(=O)c2ccc(-c3cccc(C#N)c3)cc2O[C@@H]1CN(C)C(=O)c1ccncc1 | -7 | 1 | -10[16.7 µM]
34 | Cc1ccccc1Nc1nc(N)nc(COC(=O)C(NC(=O)c2ccco2)C(C)C)n1 (configuration not stated) | -13 | / | 29
35 | O=P(OC1CCCCC1)(OC1CCCCC1)C(O)c1ccccc1 (configuration not stated) | 1 | / | 147*
36 | COc1ccc(/C=C2\SC(N3CCc4ccccc4C3)=NC2=O)cc1 | -14 | 0 | 10
37 | O=C1N=C(N2CCc3ccccc3C2)S/C1=C\c1cccc(O)c1 | -11 | 0 | 109*
38 | COc1ccc(/C=C/C(=O)Nc2ccccc2C(=O)O)cc1OC | -39 | 1 | -2
39 | COc1ccc(/C=C/C(=O)Nc2ccccc2C(=O)O)cc1 | -18 | 0 | -2
40 | COc1cc(OC)c(OC)cc1/C=C/c1cc(C(=O)O)c2ccccc2n1 | / | -2 | /

entry | LGR2 antag | PglD inh | EWS-Fli inh
33 | -5 | 7 | -4
34 | / | -2 | /
35 | / | -3 | /
36 | -1 | -5 | -13
37 | -2 | 7 | -3
38 | 81* | 2 | 40
39 | 59* | -6 | -7
40 | 6 | / | 7

Going on with the list.
entry | compound | UUG fidelity | F508del corr | miR122 inh
41 | COc1ccc(/C=C/C(=O)Nc2ccccc2C(F)(F)F)cc1OC | -17 | 2 | 12
42 | COc1ccc(/C=C/c2cc(C(=O)O)c3ccccc3n2)cc1 | -58 | 0 | -3
43 | CNC[C@H]1Oc2ccc(NC(=O)Nc3ccc(OC)cc3)cc2C(=O)N([C@H](C)CO)C[C@@H]1C | 1 | 0 | 5[16.7 µM]
44 | O=C(Cc1cccs1)Nc1ccc(S(=O)(=O)N2CCCCC2)cc1 | -9 | / | 132*
45 | COc1ccc(C(=O)C(CN2CCOCC2)c2ccccc2)cc1 (configuration not stated) | -20 | -8 | -11
46 | O=C(c1ccc(F)cc1)C(CN1CCOCC1)c1ccccc1 (configuration not stated) | -7 | -1 | -18

entry | LGR2 antag | PglD inh | EWS-Fli inh
41 | -24 | 0 | -2
42 | 7 | 7 | 70*
43 | / | 1 | -10
44 | / | 2 | /
45 | 54* | 2 | 3
46 | 58* | -3 | 57*

Complete entries as entered above. Order of screens: UUG fidelity	F508del corr	miR122 inh	LGR2 antag	PglD inh	EWS-Fli inh
CN1CCC(=O)N(CCOc2ccccc2)CC1 across the screens: 0	1	4	-12	-2	-16
Cn1nnnc1Sc1ncnc2scc(-c3ccc(C(F)(F)F)cc3)c12 across the screens: -18	-3	2	93*	-1	35
